In one assay the target is CaV3.2 (Homo sapiens, UniProt O95180). The experiment in a line: High-throughput CaV3.2/Kir2.3 T-type FLIPR fluorescent assay. The assay is classed as cell-based. The following applies: read-out: FLIPR data CaV3.2; Table 5; Fluo-4 FLIPR; closed or inactivated state not stated. On the procedure: Cells were plated in 384-well, clear-bottom, black-walled, poly-D-lysine coated plates (Becton Dickinson, Franklin Lake, N.J.) 2 days prior to use in the FLIPR assay. 100 µL of cells (1.2×10^6 cell/mL) containing doxycyline (Sigma-Aldrich, 1.5 μg/mL; to induce channel expression) were added to each well using a Multidrop (Thermo Scientific, Waltham, Mass.) and were maintained in 5% CO2 incubator at 37° C. On the morning of the assay, cells were transferred to a 5% CO2 incubator at 29° C.
Cells were washed with a wash buffer containing (in mM): 118 NaCl, 18.4 HEPES, 11.7 D-glucose, 2 CaCl2, 0.5 MgSO4, 4.7 KCl, and 1.2 KH2PO4, with the pH adjusted to 7.2 with
NaOH. 4.4 μM of the fluorescent indicator dye Fluo-4 (Invitrogen) prepared in pluronic acid (Sigma-Aldrich) was loaded into the wells and incubated for 45 minutes at 29° C. in 5% CO2. […] A change in the Fluo-4 fluorescence signal was assessed using FLIPR^TETRA™ instrument (Molecular Devices, Sunnyvale, Calif.) for 3 minutes following the elevation of extracellular KCl using an illumination wavelength of 470-495 nm with emissions recorded at 515-575 nm. […]
(§1) To assess the quality of the FLIPR assays the Z-factor (2) was used to quantify the suitability of the assay conditions using the following equation: […]
(§2) Data are expressed as mean and standard deviation (SD).

Chains of the proteins cited; added tags and fusions are not shown. Residues count along the entry.
UniProt O95180, whole entry: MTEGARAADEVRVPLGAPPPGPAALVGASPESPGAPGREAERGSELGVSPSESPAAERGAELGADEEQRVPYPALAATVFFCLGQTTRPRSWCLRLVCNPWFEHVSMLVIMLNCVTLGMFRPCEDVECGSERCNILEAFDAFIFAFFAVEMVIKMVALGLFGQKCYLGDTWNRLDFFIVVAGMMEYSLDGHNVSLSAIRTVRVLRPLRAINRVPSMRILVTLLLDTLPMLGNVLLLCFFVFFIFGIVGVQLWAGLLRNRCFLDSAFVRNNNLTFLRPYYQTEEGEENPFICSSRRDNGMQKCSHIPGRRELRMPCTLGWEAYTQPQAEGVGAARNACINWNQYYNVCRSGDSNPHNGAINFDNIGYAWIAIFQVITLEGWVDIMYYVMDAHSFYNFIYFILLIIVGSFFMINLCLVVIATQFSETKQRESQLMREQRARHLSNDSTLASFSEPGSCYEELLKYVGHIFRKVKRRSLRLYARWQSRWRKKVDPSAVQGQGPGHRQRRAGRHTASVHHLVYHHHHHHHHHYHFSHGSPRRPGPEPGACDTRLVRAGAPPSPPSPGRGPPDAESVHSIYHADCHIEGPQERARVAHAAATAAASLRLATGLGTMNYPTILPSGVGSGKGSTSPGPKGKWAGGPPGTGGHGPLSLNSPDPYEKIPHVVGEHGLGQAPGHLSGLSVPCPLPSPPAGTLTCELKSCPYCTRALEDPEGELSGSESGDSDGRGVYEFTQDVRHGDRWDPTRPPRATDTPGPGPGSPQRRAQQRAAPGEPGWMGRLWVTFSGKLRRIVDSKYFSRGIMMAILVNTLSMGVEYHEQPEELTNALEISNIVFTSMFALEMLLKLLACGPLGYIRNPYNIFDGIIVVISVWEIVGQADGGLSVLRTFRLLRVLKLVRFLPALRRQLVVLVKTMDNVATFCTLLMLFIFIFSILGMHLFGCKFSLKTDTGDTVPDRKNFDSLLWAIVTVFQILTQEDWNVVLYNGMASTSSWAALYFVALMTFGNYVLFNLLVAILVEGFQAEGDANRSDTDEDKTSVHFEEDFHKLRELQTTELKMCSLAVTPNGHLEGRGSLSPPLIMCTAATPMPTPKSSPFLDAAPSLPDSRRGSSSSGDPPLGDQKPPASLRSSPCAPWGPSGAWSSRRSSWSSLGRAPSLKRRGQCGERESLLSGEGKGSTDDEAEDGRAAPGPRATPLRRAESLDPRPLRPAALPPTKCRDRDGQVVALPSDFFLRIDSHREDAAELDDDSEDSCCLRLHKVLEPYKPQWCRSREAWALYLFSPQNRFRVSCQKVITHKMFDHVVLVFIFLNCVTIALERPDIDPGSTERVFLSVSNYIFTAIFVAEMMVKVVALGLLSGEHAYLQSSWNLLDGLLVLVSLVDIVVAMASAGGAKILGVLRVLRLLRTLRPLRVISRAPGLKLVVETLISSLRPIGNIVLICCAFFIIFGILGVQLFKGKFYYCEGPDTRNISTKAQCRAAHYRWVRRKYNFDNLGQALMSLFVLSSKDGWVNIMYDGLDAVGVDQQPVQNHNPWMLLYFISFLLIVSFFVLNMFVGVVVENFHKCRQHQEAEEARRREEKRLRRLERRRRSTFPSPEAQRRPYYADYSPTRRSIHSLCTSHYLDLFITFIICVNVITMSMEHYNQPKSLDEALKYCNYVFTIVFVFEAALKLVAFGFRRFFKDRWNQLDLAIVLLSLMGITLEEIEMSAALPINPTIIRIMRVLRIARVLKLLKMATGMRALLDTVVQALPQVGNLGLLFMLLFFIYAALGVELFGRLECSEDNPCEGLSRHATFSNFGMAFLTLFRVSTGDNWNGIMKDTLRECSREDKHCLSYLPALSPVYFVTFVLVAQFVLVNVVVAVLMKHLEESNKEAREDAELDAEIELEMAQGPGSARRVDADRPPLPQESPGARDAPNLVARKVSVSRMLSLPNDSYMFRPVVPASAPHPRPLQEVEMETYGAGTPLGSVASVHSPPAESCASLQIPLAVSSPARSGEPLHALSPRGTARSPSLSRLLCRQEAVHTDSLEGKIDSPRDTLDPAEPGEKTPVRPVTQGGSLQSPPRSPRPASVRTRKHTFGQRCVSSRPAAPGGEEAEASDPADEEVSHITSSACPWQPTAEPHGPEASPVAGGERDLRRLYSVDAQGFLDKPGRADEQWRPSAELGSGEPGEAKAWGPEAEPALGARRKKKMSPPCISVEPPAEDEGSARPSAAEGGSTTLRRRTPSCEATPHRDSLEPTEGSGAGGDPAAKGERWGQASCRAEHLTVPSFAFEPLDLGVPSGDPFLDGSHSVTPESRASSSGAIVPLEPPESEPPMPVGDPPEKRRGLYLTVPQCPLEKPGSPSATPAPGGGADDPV
UniProt Q00975, whole entry: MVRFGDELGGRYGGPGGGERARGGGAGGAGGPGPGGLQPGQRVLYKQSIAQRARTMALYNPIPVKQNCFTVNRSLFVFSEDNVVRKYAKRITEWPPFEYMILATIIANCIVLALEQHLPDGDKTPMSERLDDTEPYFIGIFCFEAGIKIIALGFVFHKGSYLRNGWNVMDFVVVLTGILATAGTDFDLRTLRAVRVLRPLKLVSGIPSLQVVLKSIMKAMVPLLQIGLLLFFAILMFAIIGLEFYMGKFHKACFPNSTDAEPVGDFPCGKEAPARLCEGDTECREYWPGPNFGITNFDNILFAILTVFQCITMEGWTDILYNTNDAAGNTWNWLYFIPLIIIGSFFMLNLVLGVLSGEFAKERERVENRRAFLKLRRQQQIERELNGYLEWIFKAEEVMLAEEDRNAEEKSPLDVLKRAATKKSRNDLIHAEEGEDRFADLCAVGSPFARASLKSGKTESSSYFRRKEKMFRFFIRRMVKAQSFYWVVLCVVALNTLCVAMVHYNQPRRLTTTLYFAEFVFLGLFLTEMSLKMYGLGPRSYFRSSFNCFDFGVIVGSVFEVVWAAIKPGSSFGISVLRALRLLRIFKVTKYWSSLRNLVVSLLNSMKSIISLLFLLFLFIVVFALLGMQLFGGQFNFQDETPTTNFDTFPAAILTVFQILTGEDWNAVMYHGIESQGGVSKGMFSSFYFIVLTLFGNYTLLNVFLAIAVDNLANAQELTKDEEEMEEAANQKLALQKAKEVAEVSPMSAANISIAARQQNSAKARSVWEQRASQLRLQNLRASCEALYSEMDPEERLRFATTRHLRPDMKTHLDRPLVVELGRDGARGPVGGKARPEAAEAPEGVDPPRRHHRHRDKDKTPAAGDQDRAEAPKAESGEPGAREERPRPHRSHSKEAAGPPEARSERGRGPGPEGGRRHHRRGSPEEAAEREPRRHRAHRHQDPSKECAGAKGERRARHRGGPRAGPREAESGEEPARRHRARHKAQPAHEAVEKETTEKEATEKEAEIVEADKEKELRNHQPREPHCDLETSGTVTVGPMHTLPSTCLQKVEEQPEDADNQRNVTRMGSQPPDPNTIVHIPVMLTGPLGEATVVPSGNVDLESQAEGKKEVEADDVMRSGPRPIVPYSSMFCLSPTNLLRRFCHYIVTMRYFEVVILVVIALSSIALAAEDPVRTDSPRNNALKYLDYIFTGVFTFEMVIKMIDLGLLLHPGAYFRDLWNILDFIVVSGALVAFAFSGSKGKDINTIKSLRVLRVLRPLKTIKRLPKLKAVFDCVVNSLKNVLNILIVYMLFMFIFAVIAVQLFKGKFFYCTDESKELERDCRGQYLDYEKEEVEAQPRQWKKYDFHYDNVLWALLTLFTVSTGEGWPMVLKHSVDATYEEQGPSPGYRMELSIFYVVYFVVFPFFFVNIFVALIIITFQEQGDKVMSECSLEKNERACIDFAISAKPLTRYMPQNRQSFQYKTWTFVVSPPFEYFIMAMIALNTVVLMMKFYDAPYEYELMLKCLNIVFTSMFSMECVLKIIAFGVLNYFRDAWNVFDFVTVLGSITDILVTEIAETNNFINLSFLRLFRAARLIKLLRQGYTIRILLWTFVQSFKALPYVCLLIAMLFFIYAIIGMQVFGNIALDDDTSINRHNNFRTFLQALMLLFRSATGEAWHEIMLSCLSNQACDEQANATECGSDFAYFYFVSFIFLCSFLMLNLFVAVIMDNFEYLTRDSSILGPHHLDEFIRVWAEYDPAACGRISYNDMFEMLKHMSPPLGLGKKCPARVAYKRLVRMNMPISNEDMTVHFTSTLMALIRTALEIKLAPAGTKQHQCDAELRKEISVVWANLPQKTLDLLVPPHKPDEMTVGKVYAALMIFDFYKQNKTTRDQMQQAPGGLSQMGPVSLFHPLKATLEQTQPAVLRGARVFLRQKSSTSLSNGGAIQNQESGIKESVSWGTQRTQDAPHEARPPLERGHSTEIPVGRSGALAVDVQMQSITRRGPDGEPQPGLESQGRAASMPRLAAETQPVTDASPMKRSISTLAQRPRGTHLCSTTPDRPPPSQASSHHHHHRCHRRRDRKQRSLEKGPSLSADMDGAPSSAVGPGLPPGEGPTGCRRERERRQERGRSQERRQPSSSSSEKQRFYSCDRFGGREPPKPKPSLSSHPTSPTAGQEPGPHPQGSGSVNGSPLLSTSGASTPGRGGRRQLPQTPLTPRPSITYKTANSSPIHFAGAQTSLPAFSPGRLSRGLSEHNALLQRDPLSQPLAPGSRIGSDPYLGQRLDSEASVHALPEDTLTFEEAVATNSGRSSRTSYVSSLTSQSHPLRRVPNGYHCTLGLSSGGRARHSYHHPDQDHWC
UniProt P54289, 25-946 partner limits assumed: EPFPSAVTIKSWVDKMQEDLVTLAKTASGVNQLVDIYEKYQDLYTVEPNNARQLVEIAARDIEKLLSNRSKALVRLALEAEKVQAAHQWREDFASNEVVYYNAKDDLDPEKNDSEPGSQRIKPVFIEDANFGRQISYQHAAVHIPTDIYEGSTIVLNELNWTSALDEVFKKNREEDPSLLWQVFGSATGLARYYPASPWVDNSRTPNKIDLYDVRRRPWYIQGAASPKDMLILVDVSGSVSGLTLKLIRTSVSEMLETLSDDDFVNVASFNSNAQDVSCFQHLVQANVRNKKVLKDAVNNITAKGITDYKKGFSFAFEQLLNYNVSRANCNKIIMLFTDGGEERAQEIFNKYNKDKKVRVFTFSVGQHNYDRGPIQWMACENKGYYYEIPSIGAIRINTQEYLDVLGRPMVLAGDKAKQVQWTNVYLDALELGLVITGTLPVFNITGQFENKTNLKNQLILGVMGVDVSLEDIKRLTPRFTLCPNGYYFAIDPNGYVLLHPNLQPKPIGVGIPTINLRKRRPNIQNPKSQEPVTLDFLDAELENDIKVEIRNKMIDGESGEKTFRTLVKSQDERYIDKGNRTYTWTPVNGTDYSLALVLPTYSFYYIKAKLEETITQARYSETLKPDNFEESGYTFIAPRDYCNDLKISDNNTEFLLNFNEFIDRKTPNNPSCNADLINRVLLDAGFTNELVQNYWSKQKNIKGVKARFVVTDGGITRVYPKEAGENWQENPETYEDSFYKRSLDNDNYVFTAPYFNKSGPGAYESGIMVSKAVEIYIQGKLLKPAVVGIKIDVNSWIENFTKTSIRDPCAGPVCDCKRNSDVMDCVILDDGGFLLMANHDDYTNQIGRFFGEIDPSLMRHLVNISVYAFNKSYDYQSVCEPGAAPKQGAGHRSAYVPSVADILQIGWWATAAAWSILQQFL
UniProt P54289, 947-1103 partner limits assumed: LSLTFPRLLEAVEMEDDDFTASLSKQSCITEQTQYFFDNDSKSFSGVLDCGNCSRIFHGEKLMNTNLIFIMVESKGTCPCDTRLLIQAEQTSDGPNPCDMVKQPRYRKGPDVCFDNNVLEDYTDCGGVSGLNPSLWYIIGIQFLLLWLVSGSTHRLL
UniProt P54284, whole entry partner: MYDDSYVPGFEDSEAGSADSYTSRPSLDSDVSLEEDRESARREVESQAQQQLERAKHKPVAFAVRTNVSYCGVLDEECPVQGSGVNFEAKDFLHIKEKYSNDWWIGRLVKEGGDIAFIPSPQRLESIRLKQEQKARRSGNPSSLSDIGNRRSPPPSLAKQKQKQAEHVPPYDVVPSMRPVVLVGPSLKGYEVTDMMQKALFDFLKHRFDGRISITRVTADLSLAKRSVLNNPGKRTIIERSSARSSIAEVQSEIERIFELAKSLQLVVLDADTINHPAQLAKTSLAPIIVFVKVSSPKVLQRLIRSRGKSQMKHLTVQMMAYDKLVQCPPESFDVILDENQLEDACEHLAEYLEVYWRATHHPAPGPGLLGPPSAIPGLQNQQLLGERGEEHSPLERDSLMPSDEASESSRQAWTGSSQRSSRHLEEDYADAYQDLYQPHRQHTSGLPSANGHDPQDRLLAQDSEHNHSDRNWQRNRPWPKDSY

In the next assay the target is CaV2.2 (Homo sapiens, UniProt Q00975). The experiment in a line: High-throughput CaV2.2/Kir2.3 FLIPR fluorescent assay. The assay is classed as cell-based. The following applies: read-out: FLIPR data CaV2.2; Table 5; Fluo-4 FLIPR; closed or inactivated state not stated. As for the experimental part:
Cells were plated in 384-well, clear-bottom, black-walled, poly-D-lysine coated plates (Becton Dickinson, Franklin Lake, N.J.) 2 days prior to use in the FLIPR assay. 100 μL of cells (1.4×10^6 cell/mL) containing doxycyline (Sigma-Aldrich, 1.5 μg/mL; to induce channel expression) were added to each well using a Multidrop (Thermo Scientific, Waltham, Mass.) and were maintained in 5% CO2 incubator at 37° C. On the morning of the assay, cells were transferred to a 5% CO2 incubator at 29° C.
Cells were washed with a wash buffer containing (in mM): 118 NaCl, 18.4 HEPES, 11.7 D-glucose, 2 CaCl2, 0.5 MgSO4, 4.7 KCl, 1.2 KH2PO4, pH adjusted to 7.2 with NaOH. […]
Concentration-dependent response curves were generated from 5 mM stock solutions prepared in DMSO (Sigma-Aldrich) and diluted in either the 2 mM KCl buffer or 12.5 mM KCl buffer and incubated for 20 minutes at 29° C. in 5% CO2. […] A change in the Fluo-4 fluorescence signal was assessed using FLIPR^TETRA™ instrument (Molecular Devices, Sunnyvale, Calif.) for 3 minutes following the elevation of extracellular KCl using an illumination wavelength of 470-495 nm with emissions recorded at 515-575 nm. […]
as §1, §2

Molecules are shown by their SMILES.

Consider 1 compound from patent US20140113898A1, “BISARYLSULFONE AND DIALKYLARYLSULFONE COMPOUNDS AS CALCIUM CHANNEL BLOCKERS” (Zalicus Pharmaceuticals Ltd., priority 2010, published 2014).

For `CC(C)(CCNC(=O)c1cn2cc(C(F)(F)F)ccc2n1)S(=O)(=O)c1cccc(C(F)(F)F)c1`, the results for the IC50 at CaV3.2 and at CaV2.2 were 8.3 µM and 0.38 µM, respectively.
